Test system: P. aeruginosa PAO1
Parameters: unit not given beside the values
Conditions: antibiotic in combination with 1
Experimental: The potential of the dilipid polymyxins to serve as an adjuvant in combination with other antibiotics was evaluated against P. aeruginosa PAO1 strain (Tables 4 and 7-12). […] Checkerboard assays were performed with the dilipid polymyxins in combination with twenty-one clinically-used antibiotics. The panel included representatives from the β-lactam, carbapenem, tetracycline, aminoglycoside and fluoroquinolone antibiotic families. Other agents that are used to treat Gram-negative bacterial infection such as fosfomycin, trimethoprim and chloramphenicol were also included. […] Fractional inhibitory concentration (FIC) index was calculated for each combination to measure potential synergism between the two agents. FIC was obtained by dividing the MIC of antibiotic/adjuvant in combination by the MIC of antibiotic/adjuvant alone, while FIC index was calculated by the summation of FIC indices for the antibiotic and adjuvant. […] Initially, we assessed the adjuvant properties of PMBN against the panel of 21 antibiotics.
The assay was performed on 96-well plates as previously described. […] The fractional inhibitory concentration (FIC) of the antibiotic was calculated via dividing the MIC of antibiotic in the presence of adjuvant by the MIC of antibiotic alone. Similarly, the FIC of adjuvant was calculated via dividing the MIC of adjuvant in the presence of antibiotic by the MIC of adjuvant alone. […]

- MICDrug in combo: (0.125)
Structure (SMILES): CO[C@H]1/C=C/O[C@@]2(C)Oc3c(C)c(O)c4c(O)c(c(/C=N/N5CCN(C)CC5)c(O)c4c3C2=O)NC(=O)/C(C)=C\C=C\[C@H](C)[C@H](O)[C@@H](C)[C@@H](O)[C@@H](C)[C@H](OC(C)=O)[C@@H]1C [Rifampicin, reference compound]

Source: patent US20210261621A1, “Preparation of Dilipid Polymixins and Use Thereof as Antimicrobial Adjuvants” (priority 2018, published 2021)
